{"source": "paper PMC4031079", "about": "(PLoS Neglected Tropical Diseases, 2014)", "binders": {"B1": {"name": "Human mannose binding lectin (MBL) (natural protein)", "chain": "ETVTCEDAQKTCPAVIACSSPGINGFPGKDGRDGTKGEKGEPGQGLRGLQGPPGKLGPPGNPGPSGSPGPKGQKGDPGKSPDGDSSLAASERKALQTEMARIKKWLTFSLGKQVGNKFFLTNGEIMTFEKVKALCVKFQASVATPRNAAENGAIQNLIKEEAFLGITDEKTEGQFVDLTGNRLTYTNWNEGEPNNAGSDEDCVLLLKNGQWNDVPCSTSHLAVCEFPI", "notes": "also called purified MBL; MBL in complex with MASPs; source: bought: Statens Serum Institute, Copenhagen, Denmark"}}, "target": "T1, scabies mite inactive serine protease paralogue SMIPP-S D1 (Sarcoptes scabiei, UniProt A0A834RHI5 27-263)", "T1 construct": "source: Pichia pastoris, secreted, purified (phenyl-Sepharose, SP-Sepharose)", "T1 sequence": "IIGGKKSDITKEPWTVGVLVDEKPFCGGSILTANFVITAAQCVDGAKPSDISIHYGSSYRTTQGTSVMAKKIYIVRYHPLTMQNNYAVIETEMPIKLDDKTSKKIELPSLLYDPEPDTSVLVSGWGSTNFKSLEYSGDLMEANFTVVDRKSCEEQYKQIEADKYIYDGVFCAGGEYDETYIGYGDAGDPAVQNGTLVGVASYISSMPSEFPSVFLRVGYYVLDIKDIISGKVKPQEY", "test": "ELISA", "details": "both partners purified", "data": [{"binder": "B1", "values": [{"measurement": "binding result", "result": "binds"}]}]}
